Results published in PubChem BioAssay (NCATS).
The entries are a selection whose mix differs from that of the whole data set. Inconclusive results are not listed. Active and inactive are the calls of the source. Unless noted, calls come from the whole dose curve; as a rule, active = well fitted curve in the direction sought with a large enough effect; inconclusive = small, poorly fitted or top-dose-only effect, or another doubt; inactive = no such curve, though single readings can be large; an effect the other way counts as inactive or inconclusive.

Sequences of proteins named here, by UniProt entry; tags and fusion partners are left off. A change or cut given only in a name is not applied to a line headed by its entry.
UniProt O15297: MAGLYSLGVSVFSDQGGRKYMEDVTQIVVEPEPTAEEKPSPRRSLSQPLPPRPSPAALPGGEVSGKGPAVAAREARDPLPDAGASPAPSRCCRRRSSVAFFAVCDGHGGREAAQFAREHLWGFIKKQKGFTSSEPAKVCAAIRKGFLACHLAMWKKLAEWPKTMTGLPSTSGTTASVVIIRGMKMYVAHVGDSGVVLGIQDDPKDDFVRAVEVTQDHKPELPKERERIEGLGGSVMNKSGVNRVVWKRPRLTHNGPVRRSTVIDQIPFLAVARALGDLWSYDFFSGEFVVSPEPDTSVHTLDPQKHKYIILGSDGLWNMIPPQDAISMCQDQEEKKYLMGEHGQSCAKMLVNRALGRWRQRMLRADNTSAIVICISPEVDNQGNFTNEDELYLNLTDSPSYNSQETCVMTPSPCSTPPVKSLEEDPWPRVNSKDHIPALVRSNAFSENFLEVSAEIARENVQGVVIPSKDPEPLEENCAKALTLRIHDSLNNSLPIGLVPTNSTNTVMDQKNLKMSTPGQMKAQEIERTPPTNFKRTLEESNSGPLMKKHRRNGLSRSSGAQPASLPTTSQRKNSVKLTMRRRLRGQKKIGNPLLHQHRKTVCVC

Assays:
[1] = qHTS Assay for Identifying Gametocytocidal Compounds (AID 743244);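 note: % is set by controls: 0 for no effect and ±100 for the full control effect; actives lower the fluorescent signal which means gametocytes are killed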; details: P. falciparum 3D7 stage III-V gametocytes, alamarBlue, 72 h; max response: active compounds read low
[2] = P-glycoprotein substrates identified in KB-8-5-11 adenocarcinoma cell line, qHTS therapeutic library screen (AID 1346987); details: KB-8-5-11 (P-gp overexpressing) viability, CellTiter-Glo, 72 h; at 44.5 µM (top of the series) unless noted; note: % is set by controls: 0 for no effect and ±100 for the full control effect; nearly all actives have a fitted effect of over 65% in size
[3] = qHTS of pediatric cancer cell lines to identify multiple opportunities for drug repurposing: Primary screen for TC32 cells (AID 1347089); details: TC32 Ewing sarcoma viability, CellTiter-Glo luminescence, 48 h; at 45.8 µM (top of the series) unless noted; note: % is set by controls: 0 for no effect and ±100 for the full control effect; nearly all actives have a fitted effect of over 60% in size
[4] = qHTS of pediatric cancer cell lines to identify multiple opportunities for drug repurposing: Primary screen for DAOY cells (AID 1347090);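 note: plate controls were DMSO for no effect and bortezomib for full effect; nearly all actives have a fitted effect of over 55% in size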
[5] = qHTS of pediatric cancer cell lines to identify multiple opportunities for drug repurposing: Primary screen for SJ-GBM2 cells (AID 1347091); details: SJ-GBM2 viability, CellTiter-Glo luminescence, 48 h; at 46 µM (top of the series) unless noted;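 note: plate controls were DMSO neutral control for no effect and bortezomib for full effect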
[6] = qHTS of pediatric cancer cell lines to identify multiple opportunities for drug repurposing: Primary screen for A673 cells (AID 1347092); details: A673 Ewing sarcoma viability, CellTiter-Glo ATP luminescence, 48 h; at 46 µM (top of the series) unless noted; note: % is set by controls: 0 for no effect and ±100 for the full control effect; nearly all actives have a fitted effect of over 45% in size
[7] = qHTS of pediatric cancer cell lines to identify multiple opportunities for drug repurposing: Primary screen for SK-N-MC cells (AID 1347093); details: SK-N-MC viability, CellTiter-Glo luminescence, 48 h; at 46 µM (top of the series) unless noted;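 note: plate controls were DMSO neutral control for no effect and bortezomib for full effect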
[8] = qHTS of pediatric cancer cell lines to identify multiple opportunities for drug repurposing: Primary screen for BT-37 cells (AID 1347094); details: BT-37 viability, CellTiter-Glo luminescence, 48 h; at 57.3 µM (top of the series) unless noted;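 note: plate controls were DMSO for no effect and bortezomib for full effect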
[9] = qHTS of pediatric cancer cell lines to identify multiple opportunities for drug repurposing: Primary screen for NB-EBc1 cells (AID 1347095); details: NB-EBc1 neuroblastoma viability, CellTiter-Glo luminescence, 48 h; at 46 µM (top of the series) unless noted;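 note: plate controls were DMSO neutral control for no effect and bortezomib for full effect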
[10] = qHTS of pediatric cancer cell lines to identify multiple opportunities for drug repurposing: Primary screen for U-2 OS cells (AID 1347096); details: U-2 OS viability, CellTiter-Glo luminescence, 48 h; at 46 µM (top of the series) unless noted;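 note: plate controls were DMSO wells for no effect and bortezomib positive control wells for full effect; nearly all actives have a fitted effect of over 50% in size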
[11] = qHTS of pediatric cancer cell lines to identify multiple opportunities for drug repurposing: Primary screen for Saos-2 cells (AID 1347097); details: Saos-2 viability, CellTiter-Glo ATP luminescence, 48 h; at 46 µM (top of the series) unless noted; note: % is set by controls: 0 for no effect and ±100 for the full control effect; nearly all actives have a fitted effect of over 40% in size
[12] = qHTS of pediatric cancer cell lines to identify multiple opportunities for drug repurposing: Primary screen for SK-N-SH cells (AID 1347098); details: SK-N-SH viability, CellTiter-Glo luminescence, 48 h; at 57 µM (top of the series) unless noted;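 note: DMSO served as neutral control and bortezomib at 2.3 µM as positive control; % is set by controls: 0 for no effect and ±100 for the full control effect; nearly all actives have a fitted effect of over 65% in size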
[13] = qHTS of pediatric cancer cell lines to identify multiple opportunities for drug repurposing: Primary screen for NB1643 cells (AID 1347099); details: NB1643 neuroblastoma viability, CellTiter-Glo luminescence, 48 h; at 46 µM (top of the series) unless noted;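 note: plate controls were DMSO neutral control for no effect and bortezomib positive control for full effect; nearly all actives have a fitted effect of over 50% in size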
[14] = qHTS of pediatric cancer cell lines to identify multiple opportunities for drug repurposing: Primary screen for LAN-5 cells (AID 1347100); details: LAN-5 neuroblastoma viability, CellTiter-Glo luminescence, 48 h; at 46 µM (top of the series) unless noted;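 note: plate controls were DMSO neutral control for no effect and bortezomib positive control for full effect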
[15] = qHTS of pediatric cancer cell lines to identify multiple opportunities for drug repurposing: Primary screen for BT-12 cells (AID 1347101);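 note: plate controls were DMSO for no effect and bortezomib positive control for full effect; nearly all actives have a fitted effect of over 25% in size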
[16] = qHTS of pediatric cancer cell lines to identify multiple opportunities for drug repurposing: Primary screen for Rh18 cells (AID 1347102); details: Rh18 rhabdomyosarcoma viability, CellTiter-Glo luminescence, 48 h; at 46 µM (top of the series) unless noted; note: % is set by controls: 0 for no effect and ±100 for the full control effect; nearly all actives have a fitted effect of over 65% in size
[17] = qHTS of pediatric cancer cell lines to identify multiple opportunities for drug repurposing: Primary screen for OHS-50 cells (AID 1347103);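 note: plate controls were DMSO neutral control for no effect and bortezomib positive control for full effect; nearly all actives have a fitted effect of over 40% in size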
[18] = qHTS of pediatric cancer cell lines to identify multiple opportunities for drug repurposing: Primary screen for RD cells (AID 1347104); details: RD rhabdomyosarcoma viability, CellTiter-Glo luminescence, 48 h; at 46 µM (top of the series) unless noted;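 note: plate controls were DMSO for no effect and bortezomib for full effect; nearly all actives have a fitted effect of over 55% in size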
[19] = qHTS of pediatric cancer cell lines to identify multiple opportunities for drug repurposing: Primary screen for MG 63 (6-TG R) cells (AID 1347105); details: MG 63 (6-TG R) viability, CellTiter-Glo, 48 h; at 46 µM (top of the series) unless noted; note: % is set by controls: 0 for no effect and ±100 for the full control effect; nearly all actives have a fitted effect of over 50% in size
[20] = qHTS of pediatric cancer cell lines to identify multiple opportunities for drug repurposing: Primary screen for control Hh wild type fibroblast cells (AID 1347106); details: Hh wild-type fibroblast viability, CellTiter-Glo luminescence, 48 h; at 46 µM (top of the series) unless noted;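 note: % is set by controls: 0 for no effect and ±100 for the full control effect; a drop in luminescence marks cytotoxicity and a rise apparent proliferation; nearly all actives have a fitted effect of over 55% in size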
[21] = qHTS of pediatric cancer cell lines to identify multiple opportunities for drug repurposing: Primary screen for Rh30 cells (AID 1347107); details: Rh30 rhabdomyosarcoma viability, CellTiter-Glo luminescence, 48 h; at 46 µM (top of the series) unless noted; note: % is set by controls: 0 for no effect and ±100 for the full control effect; nearly all actives have a fitted effect of over 75% in size
[22] = qHTS of pediatric cancer cell lines to identify multiple opportunities for drug repurposing: Primary screen for Rh41 cells (AID 1347108); details: Rh41 rhabdomyosarcoma viability, CellTiter-Glo luminescence, 48 h; at 46 µM (top of the series) unless noted;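 note: luminescence drop marks cytotoxic hits; nearly all actives have a fitted effect of over 70% in size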
[23] = qHTS to identify inhibitors of the type 1 interferon - major histocompatibility complex class I in skeletal muscle: primary screen against the NCATS Pharmaceutical Collection (AID 1347407); details: human skeletal muscle cells, IFN-b-induced MHC-I HiBiT luminescence, 24 h; at 45.9 µM (top of the series) unless noted;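 note: luminescence of HiBiT knocked into endogenous HLA-B as interferon-induced MHC class I level; % is set by controls: 0 for no effect and ±100 for the full control effect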
In short: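 Cells were seeded with 4 ng/ml IFN-beta, incubated 1 h, then dosed with compounds over eight 1:5 steps up to 46 uM final. After 24 h at 37 C, HiBiT lytic reagent was added and luminescence read after 10 min lysis in the dark.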

[24] = molecular target: Protein phosphatase 1D (Homo sapiens) (UniProt O15297); assay: RapidFire Mass Spectrometry qHTS Assay for Modulators of WT P53-Induced Phosphatase 1 (WIP1) (AID 1347424); details: WIP1 dephosphorylation of phosphopeptide, RapidFire MS; at 63 µM (top of the series) unless noted;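 note: amount of dephosphorylated VEPPL-S-QETFS peptide product formed by WIP1; plate controls were DMSO wells for no effect and GSK830371 inhibitor control at 10 µM for full effect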
In short: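 RapidFire mass spectrometry measured dephosphorylated peptide after 5 min room-temperature reaction of 2 uM VEPPL-pS-QETFS with 10 nM WIP1 (50 mM Tris-HCl pH 7.5, 30 mM MgCl2, 0.1 mM EGTA, BSA), following 1 hr compound preincubation; 1 uM isotope-labelled product standard.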

[25] = molecular target: Protein phosphatase 1D (Homo sapiens) (UniProt O15297); assay: Rhodamine-PBP qHTS Assay for Modulators of WT P53-Induced Phosphatase 1 (WIP1) (AID 1347425); details: recombinant WIP1, Rhodamine-PBP phosphate fluorescence, real-time; at 57.5 µM (top of the series) unless noted; note: % of control where 0% means no effect
In short: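 WIP1 (5 nM final) was preincubated with compound for 1 hour at room temperature. It then dephosphorylated 10 uM VEPPL-pS-QETFS peptide in Tris-HCl pH 7.5 with 30 mM MgCl2. Released Pi was detected by 10 uM Rh-PBP fluorescence (ex 525/em 598 nm) read at 1-min intervals for 11 min, as delta f1 - f0.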

[26] = A High-Content qHTS Against Drug Library for the Identification of Small Molecules that Inhibit DYT1 Early Onset Primary Dystonia-Associated Cell Pathology (AID 1645839; calls by dose curve)
In short: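 High-content imaging quantified EGFP-TorsinA mislocalization in HEK293-derived cells inducibly expressing DYT1 mutant torsinA, after 48 h exposure to compound given together with tetracycline induction. Cell count served as a toxicity channel alongside %pathology.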

CCNC(C)Cc1ccc2c(c1)OCO2 (stereo unspecified)
inactive: max response [1] -0.963% | activity change, negative = cytotoxicity [2] -13.3% [at 93.4 µM] | activity change, negative = cytotoxic [3] 4.31% [at 92.2 µM] | Potency [4] | activity change, negative = cytotoxic [5] -22.3% [at 92.7 µM] | activity change, negative = cytotoxic [6] -4.82% [at 92.7 µM] | activity change, negative = cytotoxic [7] -18.8% [at 92.7 µM] | activity change, negative = cytotoxic [8] -4.57% [at 116 µM] | activity change, negative = cytotoxic [9] -9.55% [at 92.7 µM] | activity change, negative = cytotoxic [10] -5.03% [at 92.7 µM] | activity change, negative = cytotoxic [11] -22.5% [at 92.7 µM] | activity change, negative = cytotoxic [12] 5.73% [at 115 µM] | activity change, negative = cytotoxic [13] 0% [at 92.7 µM] | activity change, negative = cytotoxic [14] -3.8% [at 92.7 µM] | Potency [15] | activity change, negative = cytotoxic [16] -0.225% [at 92.7 µM] | Potency [17] | activity change, negative = cytotoxic [18] -3.53% [at 92.7 µM] | activity change, negative = cytotoxic [19] -22.5% [at 92.7 µM] | activity change, negative = cytotoxic [20] 12.5% [at 92.7 µM] | activity change, negative = cytotoxic [21] 5.01% [at 92.7 µM] | activity change, negative = cytotoxic [22] -1.2% [at 92.7 µM] | activity change, negative = inhibition [23] -1.79% [at 92.2 µM] | activity change, negative = inhibition [24] -19.2% [at 128 µM] | activity change, negative = inhibition [25] 10% [at 116 µM] | Potency [26]
